# Measurements reported in US10835542B2, “9-aminomethyl minocycline compounds and use thereof in treating community-acquired bacterial pneumonia (CABP)” (Paratek Pharmaceuticals, Inc., priority 2016, dated 2020).
# How the values were obtained:
# [1] = test system: Community-Acquired Bacterial Pneumonia (CABP); test: Phase 3 CABP study: Investigator's Assessment of Clinical Response at PTE; format: in vivo, human
# [2] = test system: Community-Acquired Bacterial Pneumonia (CABP); test: Phase 3 CABP study: Early Clinical Response (72-120 h after first dose); format: in vivo, human; details: ITT, FIG. 2
# [3] = Phase 1 multiple oral dose study: urine PK; format: in vivo, human; details: 450 mg, Day 1 (n = 3)
# Description: Urine samples were collected from a subset of subjects at specified intervals on Day 5 of Period 2 and on Day 1 and Day 5 of Period: predose, 0 to 4, 4 to 8, 8 to 12, and 12 to 24 hours after dosing. […] Urine samples were only collected from a subset of subjects because analysis of urine PK was added by an amendment to the study protocol after the study was already underway.
# Additional parameters Ae0-4, Ae4-8, Ae8-12, Ae12-24, and Ae0-24 were also calculated.
# [4] = Food effect on plasma PK of a single 300 mg oral dose, healthy volunteers (4-period crossover); format: in vivo, human
# Description: Briefly, the study was a phase 1, randomized, open-label 4-period, crossover study. Before dosing on Day 1 of Period 1, subjects were randomized to one of four treatment sequences (see Table 2-1). On Day 1 of each period, subjects received a single oral dose of 300 mg Compound 1 (2×150 mg tablets) at various times after the consumption of food. There was a washout period of at least 5 days between each dosing period. A final study completion visit occurred 6 to 10 days after the last dose of Compound 1.
# The high-fat (approximately 50% of total caloric content of the meal) and high-calorie (approximately 800 to 1000 calories) meal followed Food and Drug Administration guidance recommendations, and provided approximately 150, 250, and 500 to 600 calories from protein, carbohydrate, and fat, respectively (FDA Guidance, 2002). These meals were to be consumed within 20 minutes. Dose administration for Treatments B, C, and D was based off of the end time of the meal.
# For statistical analysis, individual PK parameters for Compound 1 were summarized with descriptive statistics. Geometric means were determined for AUC and Cmax. PK parameters were evaluated using noncompartmental analysis using Phoenix® WinNonlin® (Pharsight Corp, St. Louis, Mo.), Version 6.2.1. Confidence intervals (CI) for test treatments (fed states: Treatments B, C, and D) compared with the reference treatment (fasted state: Treatment A) were constructed for AUC0-24, AUC0-t, AUC0-inf, and Cmax.
# [5] = Phase 1 multiple oral dose (300, 450, 600 mg) study: plasma PK, healthy adult subjects; details: for half-life: human, in vivo, 600 mg, mean half-life in plasma (T1/2); for Mean T1/2: plasma
# [6] = Intra-pulmonary (ELF, AC/AM by BAL) and plasma PK after multiple iv doses in healthy adult subjects; format: in vivo; details: human, plasma, after the fifth 100 mg iv dose
# Description: The purpose of the study was to determine the concentration of Compound 1 in pulmonary compartments (ELF and in pulmonary ACs, including AMs) and define time course of pulmonary distribution in comparison with the plasma pharmacokinetic (PK) profile. Compound 1 was administered intravenously to healthy subjects for 4 days (5 doses) to steady-state systemic concentrations. Subjects were grouped to have BAL at set times after the last dose of drug. Concomitant blood samples were taken to compare tissue with serum antibiotic concentrations. […]
# Compound 1 concentrations in ELF and AC were measured at only 1 observation time for each subject, and data from all subjects were pooled for a PK analysis of the mean intrapulmonary concentrations. The concentration of Compound 1 in BAL fluid was normalized by the dilution factor in respect to urea levels detected in plasma and BAL.
# One standard bronchoscopy was performed for each subject. Within 1 BAL timepoint group, all subjects were assessed at the same timepoint, either at 0.5, 1, 2, 4, 8, 12, and 24 hours after the last dose administration on Day 4. […]
# During the bronchoscopy 4 aliquots of 50 mL each of sterile saline solution were instilled into the right lobe of the lungs, immediately aspirated, and placed on ice. The first bronchioalveolar lavage aliquot instilled (BALX) fraction was prepared and analyzed separately from subsequent instillations. […]
# [7] = Day 1, treatment comparison 450/300
# [8] = Day 1, treatment comparison 600/300
# [9] = Day 1, treatment comparison 600/450
# [10] = Day 5, treatment comparison 450/300
# [11] = Day 5, treatment comparison 600/300
# [12] = Day 5, treatment comparison 600/450
smiles,measurement,setting,value
"CN(C)c1cc(CNCC(C)(C)C)c(O)c2c1C[C@H]1C[C@H]3[C@H](N(C)C)C(O)=C(C(N)=O)C(=O)[C@@]3(O)C(O)=C1C2=O [Compound 1, 9-[(2,2-dimethyl-propylamino)-methyl]-minocycline]","non-inferiority relative to moxifloxacin, clinical success at the PTE","[1]; ITT and CE-PTE limited to PORT Risk Class III/IV, FIG. 3",statistical non-inferiority (10% margin)
same,"non-inferiority relative to moxifloxacin, clinical success at the PTE","[1]; ITT and CE-PTE, FIG. 2",statistical non-inferiority (10% margin)
same,Difference (95% CI) in clinical success at PTE,"[1]; ITT, actual PORT Risk Class IV","3.2 (−7.4, 13.4)^[4] %"
same,"non-inferiority relative to moxifloxacin, early clinical response (ECR)",[2],statistical non-inferiority (10% margin)
same,"Ae0-24, Mean (CV)",[3],25.06 (16.8) mg
same,"Fe0-24, Mean (CV)",[3],5.57 (16.8) %
same,"AUC0-inf, Ratio of Geometric LS Mean",[4]; B/A,84.7%
same,"AUC0-t, Ratio of Geometric LS Mean",[4]; B/A,83.3%
same,"Cmax, Ratio of Geometric LS Mean",[4]; B/A,84.5%
same,"AUC0-24, Ratio of Geometric LS Mean",[4]; B/A (fed vs fasted),83.4%
same,"AUC0-24, Ratio of Geometric LS Mean",[4]; C/A,57.7%
same,"AUC0-inf, Ratio of Geometric LS Mean",[4]; C/A,58.4%
same,"AUC0-t, Ratio of Geometric LS Mean",[4]; C/A,57.7%
same,"Cmax, Ratio of Geometric LS Mean",[4]; C/A,60.1%
same,"AUC0-24, Ratio of Geometric LS Mean",[4]; D/A,37.3%
same,"AUC0-inf, Ratio of Geometric LS Mean",[4]; D/A,37.9%
same,"AUC0-t, Ratio of Geometric LS Mean",[4]; D/A,37.9%
same,"Cmax, Ratio of Geometric LS Mean",[4]; D/A,40.7%
same,half-life (mean),[5]; Day 1,~13 h
same,AUC0-24/Dose Geometric LS Means,"[5]; Day 1, 300 mg",21.32 ng·h/mL/mg
same,AUC0-24/Dose Geometric LS Means,"[5]; Day 1, 450 mg",18.64 ng·h/mL/mg
same,AUC0-24/Dose Geometric LS Means,"[5]; Day 1, 600 mg",16.18 ng·h/mL/mg
same,AUC0-24/Dose Ratio of Geometric LS Means (%),[5]; [7],87.44%
same,Cmax/Dose Ratio of Geometric LS Means (%),[5]; [7],86.71%
same,AUC0-24/Dose Ratio of Geometric LS Means (%),[5]; [8],75.89%
same,Cmax/Dose Ratio of Geometric LS Means (%),[5]; [8],73.92%
same,AUC0-24/Dose Ratio of Geometric LS Means (%),[5]; [9],86.79%
same,Cmax/Dose Ratio of Geometric LS Means (%),[5]; [9],85.26%
same,half-life (mean),[5]; Day 5,~16 h
same,AUC0-24/Dose Geometric LS Means,"[5]; Day 5, 300 mg",30.09 ng·h/mL/mg
same,AUC0-24/Dose Geometric LS Means,"[5]; Day 5, 450 mg",28.83 ng·h/mL/mg
same,AUC0-24/Dose Geometric LS Means,"[5]; Day 5, 600 mg",26.46 ng·h/mL/mg
same,AUC0-24/Dose Ratio of Geometric LS Means (%),[5]; [10],95.82%
same,Cmax/Dose Ratio of Geometric LS Means (%),[5]; [10],88.58%
same,AUC0-24/Dose Ratio of Geometric LS Means (%),[5]; [11],87.95%
same,Cmax/Dose Ratio of Geometric LS Means (%),[5]; [11],80.36%
same,AUC0-24/Dose Ratio of Geometric LS Means (%),[5]; [12],91.78%
same,Cmax/Dose Ratio of Geometric LS Means (%),[5]; [12],90.72%
same,half-life,"[5]; Day 1, range across 300, 450, 600 mg",13 to 13.7 h
same,half-life,"[5]; Day 5, range across 300, 450, 600 mg",15.5 to 16.8 h
same,Mean T1/2,"[5]; oral 300 mg, Day 1 (n = 24)",13.66 h
same,Mean T1/2,"[5]; oral 300 mg, Day 5 (n = 21)",15.49 h
same,Mean T1/2,"[5]; oral 450 mg, Day 1 (n = 23)",13.45 h
same,Mean T1/2,"[5]; oral 450 mg, Day 5 (n = 23)",16.83 h
same,Mean T1/2,"[5]; oral 600 mg, Day 1 (n = 23)",13.03 h
same,Mean T1/2,"[5]; oral 600 mg, Day 5 (n = 21)",16.75 h
same,clearance,"[6]; read-out: clearance, mean ± SD (converted)",134 mL/min
same,half-life,"[6]; read-out: elimination half-life, mean ± SD (converted)",14.7 ± 4.2 h
